Read-outs that look alike come from different tables or passages of the source.
Molecular target: FAAH (Homo sapiens, UniProt O00519)
Experiment: FAAH enzyme assay, lysate of CHO cells expressing human FAAH
From the text: To assist in assay development stable cell lines for human, murine and rat full length FAAH were developed. Human FAAH cDNA (Accession No: NM_001441.1) was purchased from Origene (Rockville, Md.). The full length FAAH was subcloned into the mammalian expression vector, pcDEF.neo, using XbaI and […] restriction sites and used for stable cell line generation.
CHO cells expressing FAAH were used to prepare either crude cell lysate or microsome fractions. To harvest cells, tissue culture media was decanted, the monolayer washed three times with Ca^++Mg^++ free PBS and cells recovered after 15 min in enzyme free dissociation media (Millipore Corp, Billerica, Mass.). Cells were collected by centrifuging at 2000 rpm for 15 min. and the cell pellet re-suspended with 50 mM HEPES (pH 7.4) containing 1 mM EDTA and the protease inhibitors aprotinin (1 mg/ml) and leupeptin (100 μM). […]
(American Radiolabeled Chemicals; 1 mCi/ml) with FAAH (Life Sciences (1995), 56, 1999-2005 and Journal of Pharmacology and Experimented Therapeutics (1997), 283, 729-734), Analytical. […] In addition, routine assays were performed monitoring hydrolysis of arachidonyl-7-amino-4-methylcoumarin amide (AAMCA) by following increase in fluorescence upon release of 7-amino 4-methyl coumarin (λEX=355 nm, (λEM=460 nm). Analytical. Biochemistry (2005). 343, 143-51. […]

Amino acid sequences for entries named in this document (tags omitted).
UniProt O00519, whole entry: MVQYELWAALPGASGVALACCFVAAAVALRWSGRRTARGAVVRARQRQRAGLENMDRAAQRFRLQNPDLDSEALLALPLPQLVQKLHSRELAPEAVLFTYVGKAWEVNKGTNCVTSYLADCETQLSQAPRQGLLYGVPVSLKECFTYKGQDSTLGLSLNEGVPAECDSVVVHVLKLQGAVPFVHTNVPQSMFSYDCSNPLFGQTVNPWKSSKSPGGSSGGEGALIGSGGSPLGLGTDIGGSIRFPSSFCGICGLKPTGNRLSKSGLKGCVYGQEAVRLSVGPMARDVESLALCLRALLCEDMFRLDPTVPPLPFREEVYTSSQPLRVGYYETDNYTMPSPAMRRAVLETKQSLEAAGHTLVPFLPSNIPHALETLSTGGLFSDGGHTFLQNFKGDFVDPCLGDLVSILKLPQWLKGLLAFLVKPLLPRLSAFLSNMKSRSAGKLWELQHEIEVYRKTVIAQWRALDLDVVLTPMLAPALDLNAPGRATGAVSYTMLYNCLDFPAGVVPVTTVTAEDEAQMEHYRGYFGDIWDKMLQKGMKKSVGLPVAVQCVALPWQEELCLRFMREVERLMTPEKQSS

IC50 (read-out: FAAH Human Cell Lysate IC50, cell lysate) [nM] | IC50 (read-out: Human Lysate, CHO cell lysate) [nM] | Structure (SMILES)
310 | – | Cn1cc(-n2cc(Sc3ccc(Cl)cn3)c(-c3ccc4c(c3)CCNC4=O)n2)cn1
– | 472 | CC(C)(O)c1cnc(-c2nn(-c3ccc(F)cc3)cc2SC2CCCCC2)cn1
